For this assay, the target named is T1, TRPM8-Y745H mutant channel (Mus musculus, UniProt Q8R4D5, Y745H).
T1 construct: The full length cDNA encoding mouse TRPM8 (NM_134252) in pcDNA5; expressed in transfected cells; host or cells: HEK293
The assay is described as follows: Calcium imaging (Fura-2) of HEK293 cells expressing TRPM8-Y745H. Type of assay: cell-based. As to the method:
The full length cDNA encoding mouse TRPM8 (NM_134252) in pcDNA5 (Invitrogen) was kindly provided by Dr. Ardem Patapoutian, (Scripps Research Institute, La Jolla, CA). The TRPM8-Y745H mutant was obtained by site-directed mutagenesis with the following primers: (for) 5'-[…]-3'; (rev) 5'-[…]-3', and Pfu Turbo Taq DNA Polymerase (Roche).
HEK293 cells were cultured in DMEM containing 10% of foetal bovine serum and antibiotics, and plated in 2 cm^2 wells at 400.000-500.000 cells/well. 20-24 h after plating, the cells were co-transfected with eGFP (0.3 μg/well) and TRPM8-wt or TRPM8-Y745H (2 μg/well) by incubating them with a solution containing the plasmid DNA and Lipofectamine 2000 (Invitrogen) for 5 hours. Subsequently, the cells were trypsinized and replated on poly-L-lysine-coated round coverslips (6 mm diameter). […]
Prior to experiment, HEK293 cells transfected with the TRPM8-wt/Y745H constructs were incubated with 5 μM Fura-2AM dissolved in the bath solution and 0.02% Pluronic (both from Invitrogen) for 40 min at 37°C in darkness. Fluorescence measurements were made with a Leica DM IRE2 inverted microscope fitted with a CCD camera (Imago QE Sensicam, TillPhotonics, Graefelfing, Germany). Fura-2 was excited at 340 nm and 380 nm with a Polychrome IV monochromator (Till Photonics) and the emitted fluorescence was filtered with a 510 nm longpass filter. […]

The chains behind the UniProt entries cited, without tags or fusion partners.
UniProt Q8R4D5, whole entry Y745H: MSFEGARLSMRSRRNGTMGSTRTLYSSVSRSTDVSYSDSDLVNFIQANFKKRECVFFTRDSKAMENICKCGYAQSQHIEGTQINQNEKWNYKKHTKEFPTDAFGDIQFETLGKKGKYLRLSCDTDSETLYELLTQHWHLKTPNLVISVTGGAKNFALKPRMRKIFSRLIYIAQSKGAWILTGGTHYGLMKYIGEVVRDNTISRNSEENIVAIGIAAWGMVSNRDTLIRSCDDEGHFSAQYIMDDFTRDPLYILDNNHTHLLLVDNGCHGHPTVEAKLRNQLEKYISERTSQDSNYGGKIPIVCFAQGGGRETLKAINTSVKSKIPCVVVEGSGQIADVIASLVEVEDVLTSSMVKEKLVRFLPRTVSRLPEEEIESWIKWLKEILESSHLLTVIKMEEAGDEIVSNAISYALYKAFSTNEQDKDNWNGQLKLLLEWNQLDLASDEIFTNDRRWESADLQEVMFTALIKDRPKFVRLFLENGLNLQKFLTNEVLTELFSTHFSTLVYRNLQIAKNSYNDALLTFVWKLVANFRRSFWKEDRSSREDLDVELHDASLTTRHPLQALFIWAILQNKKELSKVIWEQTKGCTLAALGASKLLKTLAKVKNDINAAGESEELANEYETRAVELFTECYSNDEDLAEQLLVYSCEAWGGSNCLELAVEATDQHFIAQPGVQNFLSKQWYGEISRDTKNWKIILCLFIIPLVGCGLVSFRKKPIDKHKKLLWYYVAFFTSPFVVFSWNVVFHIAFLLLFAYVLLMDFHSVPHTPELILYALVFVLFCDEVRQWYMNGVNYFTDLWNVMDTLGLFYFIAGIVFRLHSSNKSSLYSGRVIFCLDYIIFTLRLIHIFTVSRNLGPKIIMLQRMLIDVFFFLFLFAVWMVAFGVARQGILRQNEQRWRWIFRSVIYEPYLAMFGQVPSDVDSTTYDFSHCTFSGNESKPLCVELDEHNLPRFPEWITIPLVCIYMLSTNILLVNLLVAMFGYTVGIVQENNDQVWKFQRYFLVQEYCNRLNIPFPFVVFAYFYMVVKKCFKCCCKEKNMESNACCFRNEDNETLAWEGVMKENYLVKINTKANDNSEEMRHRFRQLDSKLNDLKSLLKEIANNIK

Consider `Clc1ccc(COC(Cn2ccnc2)c2ccc(Cl)cc2Cl)cc1` (stereo not shown) [Econazole, 1-[2-[(4-chlorophenyl)methoxy]-2-(2,4-dichlorophenyl)ethyl]-1H-imidazole], for which the “Inhibitory potency at cooling-activated TRPM8-Y745H compared with wild-type (dose-inhibition curves)” value is “significantly reduced”.

The record behind these values is paper PMC2778643, “Differential role of the menthol-binding residue Y745 in the antagonism of thermally gated TRPM8 channels” (Molecular Pain, 2009).
